From patent publication US20150148256A1, “BIOLUMINESCENCE IMAGING-BASED SCREENING ASSAY AND INHIBITORS OF ABCG2” (THE JOHNS HOPKINS UNIVERSITY, priority 2008, published 2015)

System: ABCG2-overexpressing NCI-H460/MX20 cells
Experiment: Mitoxantrone (MTX) resensitization assay (XTT)

CCN(CC)CCCC(C)Nc1c2ccc(Cl)cc2nc2ccc(OC)cc12 (stereo not drawn) [quinacrine]
MTX (mitoxantrone resensitization assay) (H460/MX20 cells with MTX): Y | resensitization of H460/MX20 cells to MTX (compound 1 μM with 15 μM MTX, two days): showed resensitization of H460/MX20 cells to MTX | cytotoxicity in the MTX resensitization assay (compound 20 μM, H460/MX20 cells): too cytotoxic to be tested in the MTX assay
